In patent publication US20140314791A1, “METHODS OF TREATING CANCER” (DANA-FARBER CANCER INSTITUTE, INC., priority 2012, published 2014):
Like-named read-outs stand apart in the source and are kept apart here.

Key:
[1] = test system: γH2AX; assay: Western blot analysis of γH2AX after CHEK1 inhibitor treatment; format: cell-based
[2] = test system: Lkb1-wt and Lkb1-null cells; settings: fixed dose of 660 nM, 2 days
[3] = test system: γH2AX in Lkb1-null (t2, t4, and t5) cells; settings: 300 nM, 3 h
[4] = test system: γH2AX in Lkb1-wt (634, 855, and 857) cells; settings: 300 nM, 3 h
[5] = test system: Kras/p53, Kras/Lkb1, and Kras/p53/Lkb1 lung tumors; settings: 2 doses

AZD7762
phosphorylation of H2AX (Western blot) ([1]; 3 h at the GI50 concentration): induced phosphorylation of H2AX
difference on γH2AX between Lkb1-null and Lkb1-wt cells (Western blot) ([1]; 3 h treatment): did not reveal a noticeable difference
cell growth relative to DMSO-treated cells [2]: greater growth inhibitory effects on the Lkb1-null than Lkb1-wt cells
cells having DNA DSBs (γH2AX, flow cytometry) ([3]; first of three Lkb1-null values (lines t2, t4, t5)): 7.76%
cells having DNA DSBs (γH2AX, flow cytometry) ([3]; second of three Lkb1-null values (lines t2, t4, t5)): 17.10%
cells having DNA DSBs (γH2AX, flow cytometry) ([3]; third of three Lkb1-null values (lines t2, t4, t5)): 10.30%
cells having DNA DSBs (γH2AX, flow cytometry) ([4]; first of three Lkb1-wt values): 3.06%
cells having DNA DSBs (γH2AX, flow cytometry) ([4]; second of three Lkb1-wt values): 4.42%
cells having DNA DSBs (γH2AX, flow cytometry) ([4]; third of three Lkb1-wt values): 2.88%
18-FDG uptake of tumors (SUVmax) after treatment ([5]; Kras/Lkb1 and Kras/p53 tumors, respectively): little or no response
18-FDG uptake of tumors (SUVmax) after treatment ([5]; Kras/p53/Lkb1 tumors): most effective in reducing 18-FDG uptake
